{
  "sequences": {"note": "The chains behind the UniProt entries cited, without tags or fusion partners. Where a name states a change or a piece, a line headed by the entry shows the natural chain unless it says otherwise.", "UniProt P04818": "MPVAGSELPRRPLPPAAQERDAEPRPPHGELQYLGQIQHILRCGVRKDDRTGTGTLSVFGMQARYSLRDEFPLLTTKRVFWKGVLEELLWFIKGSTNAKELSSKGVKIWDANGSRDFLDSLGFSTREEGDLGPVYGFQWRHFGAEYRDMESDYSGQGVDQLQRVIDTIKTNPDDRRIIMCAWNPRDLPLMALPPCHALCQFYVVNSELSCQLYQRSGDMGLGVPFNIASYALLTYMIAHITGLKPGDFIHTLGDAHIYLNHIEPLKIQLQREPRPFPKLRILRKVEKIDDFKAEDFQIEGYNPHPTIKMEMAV"},
  "source": "ChEMBL document CHEMBL1151945",
  "about": "(J Med Chem, 2009)",
  "target": "Thymidylate synthase (Homo sapiens, UniProt P04818)",
  "data": [
    {"smiles": "CCc1sc2nc(N)[nH]c(=O)c2c1Sc1ccncc1", "values": [
      {"measurement": "IC50", "result": 280, "unit": "nM"}
    ]}
  ]
}
